Measurements: ChEMBL document CHEMBL1124426

Key:
Mus musculus = species on record: Mus musculus; assay: Ability of compound for reversal of morphine and analgesia was determined; 2= reversal of both morphine respiratory depression and analgesia
Oryctolagus cuniculus = species on record: Oryctolagus cuniculus; assay: Tested in rabbit for percentage analgesia after treatment with morphine

In the case of C=CCN1CC[C@]23c4c5ccc(O)c4O[C@H]2C(=O)CC[C@@]3(O)[C@H]1C5, the Reversal type (Mus musculus) is reported as 2 and the Reversal (Oryctolagus cuniculus) is reported as 50%.
